# Antibody variant affinities, Ab-14 light chain, assay 1

All variants were tested on one target, the spike HR2 peptide PDVDLGDISGINAS (SARS-CoV-2).

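In library AAYL50, one, two or three CDR residues were substituted; doubles and triples were drawn at random. In AlphaSeq, yeast of one mating type display the scFv and yeast of the other type display the target. The frequency of each diploid, read from paired DNA barcodes, reflects how well the two displayed proteins bind. Scores were corrected for input abundance and mapped to Kd with protein pairs of known affinity run in the same pool. The assay was run in three technical replicates.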

Each scFv is VH, the linker GGGGSGGGGSGGGGS, VL, as in the parent Ab-14, and differs from it in the CDRs of the light chain only.
VH: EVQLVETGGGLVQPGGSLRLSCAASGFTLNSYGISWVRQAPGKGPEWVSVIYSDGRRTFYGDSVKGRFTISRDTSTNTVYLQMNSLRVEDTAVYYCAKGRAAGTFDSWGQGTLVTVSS
VL: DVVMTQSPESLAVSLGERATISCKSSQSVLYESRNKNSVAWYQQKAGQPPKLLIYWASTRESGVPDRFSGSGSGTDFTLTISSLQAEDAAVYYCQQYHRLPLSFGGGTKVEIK

Positions count from residue 1 of the parent VL; L30G puts G in place of L.
Every variant below is changed at L30 of the VL (sequential numbering).
The Kd shown is the geometric mean over detected replicates; a lower Kd is a better binder.
A pair that was not seen in any replicate is written "no signal"; this usually means weak binding, but a binder can also be missed.
Empty control strains, which show no peptide, gave a signal in 18% of pairings with library AAYL50; the median was 15 µM and 95% of these signals were weaker than 970 nM. No background was subtracted.
For reference, the parent read 4.4 nM as the reference entry and 48 nM as a member of this library.

* L30G N35Q: 3.1 nM (3 of 3 replicates)
* L30H S33H R60C: 3.1 µM (1 of 3 replicates)
* L30I E32V H98M: 580 nM (3 of 3 replicates)
* L30N V39M A40K: 20 µM (1 of 3 replicates)
* S28G L30M R99F: 6.5 nM (3 of 3 replicates)
* L30W E61P S62E: 13 nM (3 of 3 replicates)
* L30N E61K S103F: no signal (0 of 3 replicates)
* L30S T59Y Q95L: 220 nM (2 of 3 replicates)
* Q27S L30M R34W: 12 nM (3 of 3 replicates)
* L30V S33D: 5.4 nM (3 of 3 replicates)
* L30S Q96G H98W: 1.1 µM (3 of 3 replicates)
* S25I L30M S62V: 380 pM (3 of 3 replicates)
* L30A V39D H98P: no signal (0 of 3 replicates)
* L30Q E32G L102Q: 14 µM (3 of 3 replicates)
* L30M H98P L100A: 670 nM (3 of 3 replicates)
* L30G N37C Y97N: no signal (0 of 3 replicates)
* Q27M L30D S58F: 28 nM (3 of 3 replicates)
* S25W L30V E61N: 19 nM (3 of 3 replicates)
* K24D L30V R34N: 18 nM (3 of 3 replicates)
* K24S L30P S103K: 320 nM (3 of 3 replicates)
* K24R L30D L102E: 240 nM (1 of 3 replicates)
* L30W V39H S62Y: no signal (0 of 3 replicates)
* L30V E32F W56I: 9.2 µM (1 of 3 replicates)
* S28R L30Y S58D: 53 nM (3 of 3 replicates)
* S26R L30P R60G: 200 nM (3 of 3 replicates)
* L30S R60L E61D: 27 nM (3 of 3 replicates)
* K24A S25V L30F: no signal (0 of 3 replicates)
* K24L L30A Y97F: 5.3 µM (2 of 3 replicates)
* L30P N35R S38T: 3.9 µM (2 of 3 replicates)
* S26K L30N A40R: no signal (0 of 3 replicates)
* L30V S38Y E61V: 71 nM (3 of 3 replicates)
* L30R Y97M P101F: 20 nM (3 of 3 replicates)
* L30C R60K: 80 nM (3 of 3 replicates)
* S26H L30N N37D: 18 nM (3 of 3 replicates)
* L30K R34C: 4.6 µM (1 of 3 replicates)
* L30Y E32Q Y97C: no signal (0 of 3 replicates)
* L30A N35D V39D: 46 µM (2 of 3 replicates)
* L30F Y97E: 22 nM (3 of 3 replicates)
* L30G W56V E61A: 58 nM (3 of 3 replicates)
* L30H R34T T59L: 3.9 nM (3 of 3 replicates)
* Q27W L30E S38H: 4.4 nM (3 of 3 replicates)
* K24N L30R H98F: 20 nM (3 of 3 replicates)
* Q27A L30I S103R: 1.0 µM (3 of 3 replicates)
* L30F H98D L102C: no signal (0 of 3 replicates)
* L30W N37A L102C: no signal (0 of 3 replicates)
* L30V R60A Y97V: no signal (0 of 3 replicates)
* L30S: 250 nM (3 of 3 replicates)
* L30M N35G R60S: 7.9 µM (3 of 3 replicates)
* L30R S38I L102H: no signal (0 of 3 replicates)
* V29G L30V R34M: 480 nM (1 of 3 replicates)

8 of these entries, quoted again:

changes,apparent Kd,seen in
S26R L30P R60G,200 nM,3/3
Q27M L30D S58F,28 nM,3/3
L30R Y97M P101F,20 nM,3/3
L30Q E32G L102Q,14 µM,3/3
V29G L30V R34M,480 nM,1/3
L30W N37A L102C,no signal,0/3
L30F H98D L102C,no signal,0/3
L30H R34T T59L,3.9 nM,3/3

From the AlphaSeq antibody data of Engelhart et al. 2022 (doi:10.1038/s41597-022-01779-4), copy in the FLAb collection.